Key:
TGR26 = target: T1, TGR26 (Rattus norvegicus, UniProt Q56UD9); test: Inhibiting activity of intracellular cAMP production, TGR26 expressing CHO cells; assay type: cell-based; conditions: forskolin
T1 construct: treated with restriction enzymes ClaI and SpeI, and the insert encoding TGR26 was excised; expressed in transfected cells; host or cells: CHO dhfr- cells, plasmid pAK-rGPR7; membrane fraction
T1 sequence (Q56UD9 1-329): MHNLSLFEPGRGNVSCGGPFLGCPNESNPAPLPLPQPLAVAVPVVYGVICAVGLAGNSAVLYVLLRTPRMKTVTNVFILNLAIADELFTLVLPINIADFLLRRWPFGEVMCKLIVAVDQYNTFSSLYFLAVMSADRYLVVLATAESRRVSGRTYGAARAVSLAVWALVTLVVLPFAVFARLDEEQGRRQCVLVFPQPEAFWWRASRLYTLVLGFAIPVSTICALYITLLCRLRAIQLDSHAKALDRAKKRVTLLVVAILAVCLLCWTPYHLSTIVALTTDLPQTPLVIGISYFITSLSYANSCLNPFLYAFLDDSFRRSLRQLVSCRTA
Description: TGR26 expressing CHO cells prepared in Reference Example 68, were seeded on 24-well plate at 5×10^4 cells/well and cultivated for 48 hours. The cells were washed with MEMα buffer (pH7.4) containing 0.2 mM 3-isobutyl-methylxanthine, 0.05% BSA (bovine serum albumine) and 20 mM HEPES [hereafter, MEMα buffer (pH7.4) containing 0.2 mM 3-isobutyl-methylxanthine, 0.05% BSA (bovine serum albumine) and 20 mM HEPES may be referred to as reaction buffer]. Then, 0.5 ml of the reaction buffer was added to the cells and the suspension was incubated for 30 minutes in the incubator. […] The cAMP level in the extract was measured using the cAMP EIA Kit (Amersham Pharmacia Biotech).
The human homologue of GPR8 ligand peptide consisting of 23 residues, which was obtained in Reference Example (hereafter, sometimes referred to as hGPR8L(1-23)), or the human homologue of GPR8 ligand peptide consisting of 30 residues, which was obtained in Reference Example (hereafter, sometimes referred to as hGPR8L(1-30)), was administered at various concentrations to membrane fraction of the TGR26 expressing CHO cells by the method described in Reference Example 69, and an inhibiting activity of intracellular cAMP production was measured. […]

Sequences of proteins named here, by UniProt entry; tags and fusion partners are left off. A change or cut given only in a name is not applied to a line headed by its entry.
UniProt P48146: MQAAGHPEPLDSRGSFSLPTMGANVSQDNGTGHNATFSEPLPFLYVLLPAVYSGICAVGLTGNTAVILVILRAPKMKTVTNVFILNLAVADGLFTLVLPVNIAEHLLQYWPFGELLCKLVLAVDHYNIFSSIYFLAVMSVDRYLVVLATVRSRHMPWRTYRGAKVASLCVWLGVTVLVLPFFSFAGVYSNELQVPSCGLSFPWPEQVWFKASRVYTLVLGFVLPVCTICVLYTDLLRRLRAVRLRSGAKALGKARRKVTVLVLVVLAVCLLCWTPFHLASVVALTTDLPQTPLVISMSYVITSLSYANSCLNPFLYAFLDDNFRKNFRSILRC

GPR8 = GPR8 (Homo sapiens, UniProt P48146); test: Inhibiting activity of intracellular cAMP production, GPR8 expressing CHO cells; assay type: cell-based; design: expressed in transfected cells; host or cells: CHO dhfr- cells, plasmid pAKKO-GPR8, mainly clone #17; conditions: forskolin
Description: The CHO/GPR8 cells prepared in Reference Example 4 and mock CHO cells were inoculated on a 24-well plate in 5×10^4 cells/well followed by cultivation for 48 hours. The cells were then washed with Hanks' buffer (pH 7.4) containing 0.2 mM 3-isobutyl-methylxanthine, 0.05% BSA and 20 mM HEPES (hereinafter Hanks' buffer (pH 7.4) containing 0.2 mM 3-isobutyl-methylxanthine, 0.05% BSA and 20 mM HEPES is referred to as a reaction buffer). Thereafter, 0.5 ml of the reaction buffer was added to the system, which was kept in the incubator for 30 minutes. The reaction buffer was removed and 0.25 ml of a fresh reaction buffer was added to the cells. […] The amount of cAMP in the extract was measured using cAMP EIA kit (Amersham Pharmacia Biotech).
The hGPR8L(1-23), which was synthesized in Reference Example 12, was brought into contact with the GPR8 expressing CHO cells at various concentrations by the method described in Reference Example 5, and an inhibiting activity of intracellular cAMP production was measured. […]
The hGPR8L(1-30), which was synthesized in Reference Example 13, was brought into contact with the GPR8 expressing CHO cells at various concentrations by the method described in Reference Example 5, and an inhibiting activity of intracellular cAMP production was measured. […]

SMILES | inhibiting activity of intracellular cAMP production (in words) (TGR26) | inhibiting activity of intracellular cAMP production (in words) (GPR8)
CSCC[C@H](NC(=O)[C@H](CC(C)C)NC(=O)[C@H](CC(C)C)NC(=O)CNC(=O)[C@H](C)NC(=O)[C@H](C)NC(=O)[C@H](CCCNC(=N)N)NC(=O)CNC(=O)[C@@H](NC(=O)[C@@H](NC(=O)[C@H](Cc1c[nH]cn1)NC(=O)[C@H](Cc1ccc(O)cc1)NC(=O)[C@H](CCCNC(=N)N)NC(=O)[C@@H]1CCCN1C(=O)[C@H](CO)NC(=O)[C@H](C)NC(=O)[C@@H](NC(=O)[C@H](Cc1c[nH]cn1)NC(=O)[C@H](CCCCN)NC(=O)[C@H](Cc1ccc(O)cc1)NC(=O)[C@@H](N)Cc1c[nH]c2ccccc12)C(C)C)[C@@H](C)O)C(C)C)C(=O)NCC(=O)N[C@@H](CC(C)C)C(=O)O [hGPR8L(1-23)] | apparently inhibited intracellular cAMP production | apparently inhibited intracellular cAMP production
CSCC[C@H](NC(=O)[C@H](CC(C)C)NC(=O)[C@H](CC(C)C)NC(=O)CNC(=O)[C@H](C)NC(=O)[C@H](C)NC(=O)[C@H](CCCNC(=N)N)NC(=O)CNC(=O)[C@@H](NC(=O)[C@@H](NC(=O)[C@H](Cc1c[nH]cn1)NC(=O)[C@H](Cc1ccc(O)cc1)NC(=O)[C@H](CCCNC(=N)N)NC(=O)[C@@H]1CCCN1C(=O)[C@H](CO)NC(=O)[C@H](C)NC(=O)[C@@H](NC(=O)[C@H](Cc1c[nH]cn1)NC(=O)[C@H](CCCCN)NC(=O)[C@H](Cc1ccc(O)cc1)NC(=O)[C@@H](N)Cc1c[nH]c2ccccc12)C(C)C)[C@@H](C)O)C(C)C)C(=O)NCC(=O)N[C@@H](CC(C)C)C(=O)N[C@@H](CCCNC(=N)N)C(=O)N[C@@H](CCCNC(=N)N)C(=O)N[C@@H](CO)C(=O)N1CCC[C@H]1C(=O)N[C@@H](Cc1ccc(O)cc1)C(=O)N[C@@H](CC(C)C)C(=O)N[C@@H](Cc1c[nH]c2ccccc12)C(=O)O [hGPR8L(1-30)] | apparently inhibited intracellular cAMP production | apparently inhibited intracellular cAMP production

Source: patent publication US7375074B2, “Body weight gain inhibitor” (priority 2001, dated 2008)
